Here are results for 4 compounds from ChEMBL document CHEMBL4828766, “Functional Mixture-Based Positional Scan Identifies a Library of Antagonist Tetrapeptide Sequences (LAtTeS) with Nanomolar Potency for the Melanocortin-4 Receptor and Equipotent with the Endogenous AGRP(86-132) Antagonist” (J Med Chem, 2021).

Sequences of proteins named here, by UniProt entry; tags and fusion partners are left off. A change or cut given only in a name is not applied to a line headed by its entry.
UniProt P33033: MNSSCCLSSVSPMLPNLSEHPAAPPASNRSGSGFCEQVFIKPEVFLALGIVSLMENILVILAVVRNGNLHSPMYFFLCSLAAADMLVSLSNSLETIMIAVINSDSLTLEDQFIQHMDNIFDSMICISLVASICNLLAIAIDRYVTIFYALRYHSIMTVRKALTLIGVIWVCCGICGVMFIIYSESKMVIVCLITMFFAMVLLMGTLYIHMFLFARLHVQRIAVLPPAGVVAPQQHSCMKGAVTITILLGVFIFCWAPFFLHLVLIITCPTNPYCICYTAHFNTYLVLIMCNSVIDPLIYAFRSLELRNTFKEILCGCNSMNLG
UniProt P56450, whole entry: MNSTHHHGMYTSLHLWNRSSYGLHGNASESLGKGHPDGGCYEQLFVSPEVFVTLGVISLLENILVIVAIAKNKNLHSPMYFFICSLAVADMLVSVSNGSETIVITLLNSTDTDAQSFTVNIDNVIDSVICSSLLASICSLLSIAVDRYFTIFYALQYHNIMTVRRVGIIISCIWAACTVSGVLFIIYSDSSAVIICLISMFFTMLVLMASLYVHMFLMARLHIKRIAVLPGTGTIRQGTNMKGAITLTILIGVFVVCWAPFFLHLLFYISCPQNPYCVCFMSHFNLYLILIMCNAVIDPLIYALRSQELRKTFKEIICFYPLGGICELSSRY

As a reminder, the pEC50 is the EC50 on a negative log10 scale, so that one unit is a factor of ten.

The target of one test is Melanocortin receptor 3 (Mus musculus, UniProt P33033). In words: Agonist activity at mouse MC3R expressed in HEK293 cells assessed as induction of cAMP level incubated for 2 hr by alphaScreen assay. It is filed as functional, cell-based.
For the next test, the target named is Melanocortin receptor 4 (Mus musculus, UniProt P56450). The test is described as follows: Agonist activity at mouse MC4R expressed in HEK293 cells assessed as induction of cAMP level incubated for 2 hr by alphaScreen assay. It counts as functional, cell-based. A general note: Cyclic AMP is a second messenger, typically raised through Gs and lowered through Gi signalling.

pEC50: −log10 of the molar value.

Consider `CC(=O)N[C@H](Cc1ccc(I)cc1)C(=O)N[C@@H](CCCNC(=N)N)C(=O)N[C@H](Cc1ccc2ccccc2c1)C(=O)N[C@H](CCCCN)C(N)=O`, for which the pEC50 on Melanocortin receptor 3 and on Melanocortin receptor 4 was under 4.00 in each case. Consider `CC(=O)N[C@H](Cc1ccc(I)cc1)C(=O)N[C@@H](CCCNC(=N)N)C(=O)N[C@H](Cc1ccc2ccccc2c1)C(=O)N[C@@H](CCCNC(=N)N)C(N)=O`, for which the negative logarithm of the EC50 (pEC50) on Melanocortin receptor 3 and on Melanocortin receptor 4 was under 4.00 in each case.

With `CC(=O)N[C@H](Cc1ccc(I)cc1)C(=O)N[C@@H](CCCNC(=N)N)C(=O)N[C@@H](Cc1ccc2ccccc2c1)C(=O)N[C@@H](CCCNC(=N)N)C(N)=O`, the negative-log EC50 (pEC50) at Melanocortin receptor 3 was under 4.00. For `CC(=O)N[C@H](Cc1ccc(I)cc1)C(=O)N[C@@H](CCCNC(=N)N)C(=O)N[C@@H](Cc1ccc2ccccc2c1)C(=O)N[C@H](CCCCN)C(N)=O`, the negative-log EC50 (pEC50) at Melanocortin receptor 3 and at Melanocortin receptor 4 was under 4.00 each time.
